Patent publication US12472235B2, “Treatment of diseases with sequential administration of an agent capable of up-regulating CD73 and glucocorticoids” (FARON PHARMACEUTICALS OY, priority 2021, dated 2025)

Tests used:
[1] = tested on: MxA (myxovirus resistance protein A); test: INFORAAA clinical trial (NCT03119701), MxA response in patients after emergency aortic surgery; type: in vivo, human; details: 10 μg intravenously every 24 hours for up to 6 days, with or without simultaneous steroids such as a glucocorticoid, FIG. 1
Excerpt: (§1) The following Figures show CD73 (organ protective) and MxA (anti-viral) responses in patients treated with intravenous interferon beta for the prevention of SIRS leading to MODS, and death that have survived emergency aortic surgery (ClinicalTrials.gov; NCT03119701). More detailed,
MxA is a classical pharmacodynamic marker for IFN beta drug activity, but it only measures anti-viral activity.
(§2) In a clinical trial for the prevention of MODS after emergency aortic surgery (ClinicalTrials.gov; NCT03119701: Efficacy and Safety of FP-1201-Iyo (Interferon Beta-1a) in Prevention of Multi-Organ Failure on Patients After Open Surgery for a RAAA (INFORAAA)), 10 μg of interferon beta-1a or placebo has been intravenously administered to the patients with or without steroids, such as glucocorticoids, for up to 6 days every 24 hours. FP-1201-Iyo (Traumakine, Faron Pharmaceuticals Oy) comprises interferon beta-1a as an active ingredient.
(§3) FIGS. 1 and 2 show an up-regulation of MxA (myxovirus resistance protein A) and CD73 during the trial presented as the individual plots for each patient. CD73 responses/induction was often observed after 3 consecutive days of IFN beta-1a administration, sometimes longer administration was needed. […] FIG. 3 includes also patients treated with placebo.

[2] = ARDS patients, intravenous IFN beta with simultaneous glucocorticoids; as previously reported [2]; cited from earlier work
[3] = INTEREST Trial (NCT02622724), intravenous IFN beta for the treatment of ARDS, mortality; type: in vivo, human
Excerpt: In the pre-clinical work and multiple clinical trials including major ongoing trials for COVID-19 but also clinical trials which have been conducted on the use of Interferon beta (IFN beta) in attempt to induce CD73 for organ protection; these trials include two trials for ARDS (ClinicalTrials.gov; NCT00789685 and NCT02622724) and a trial for the prevention of multiple organ dysfunction syndrome (MODS) after emergency aortic surgery (ClinicalTrials.gov; NCT03119701), have shown that the administration of glucocorticoids in the early phase of the diseases which led to SIRS increases mortality in patients. […] The 28-day mortality was not increased in patients that first received IFN beta and then glucocorticoids, even though glucocorticoid use overall was associated with worse survival.

[4] = tested on: CD73; test: INFORAAA clinical trial (NCT03119701), CD73 response in patients after emergency aortic surgery; type: in vivo, human
Excerpt: as §1, §2, §3

B1: interferon beta-1a (protein, UniProt P01574 22-187, looked up)
Interferon beta: MSYNLLGFLQRSSNFQCQKLLWQLNGRLEYCLKDRMNFDIPEEIKQLQQFQKEDAALTIYEMLQNIFAIFRQDSSSTGWNETIVENLLANVYHQINHLKTVLEEKLEKEDFTRGKLMSSLHLKRYYGRILHYLKAKEYSHCAWTIVRVEILRNFYFINRLTGYLRN
Q: With B1 as the molecule, how does the “up-regulation of MxA” value [1] read?
A: up-regulation of MxA (myxovirus resistance protein A) observed in all patients

Q: What about the “28-day mortality, glucocorticoids with IFN beta compared to IFN beta without steroids” value [2] of the same molecule?
A: significant

Q: And the “mortality if glucocorticoids were used after IFN beta treatment” value ([3]; ARDS patients, intravenous IFN beta followed by glucocorticoids)?
A: significantly lower

Q: What about the “28-day mortality in patients that first received IFN beta and then glucocorticoids” value ([3]; sequential IFN beta then glucocorticoids) of the same molecule?
A: not increased

Q: And the “up-regulation of CD73” value ([4]; 10 μg intravenously every 24 hours for up to 6 days, used with steroids such as glucocorticoids, FIG. 2)?
A: no up-regulation of CD73

Q: What about the “time of administration until CD73 response/induction observed” value ([4]; 10 μg intravenously every 24 hours, sometimes longer administration was needed) of the same molecule?
A: ~3 consecutive days
